For experiment [1], the target named is Sodium channel protein type 2 subunit alpha (Rattus norvegicus) (UniProt P04775). Briefly: Dissociation constant for binding to inactivated state of rat brain NaIIa (rNav1.2) -B2 cell line stably expressed in HEK293 Cells.
The nature of experiment [2]: Ratio between Kr to Ki. It counts as functional.
Experiment [3] deals with Sodium channel protein type 2 subunit alpha, Nav1.2 (Rattus norvegicus) (UniProt P04775). The experiment in a line: Dissociation constant for binding to resting state of rat brain NaIIa (rNav1.2) -B2 cell line stably expressed in HEK293 Cells.

In experiment [1], `Nc1nnc(-c2cccc(Cl)c2Cl)c(N)n1` [LAMOTRIGINE] came in with a Ki of 29.2 µM. For the same compound, the Ratio in experiment [2] stood at 60. This compound also gave a kR in experiment [3] of 1760 µM.

The values are drawn from ChEMBL document CHEMBL1138680, “Phenoxyphenyl pyridines as novel state-dependent, high-potency sodium channel inhibitors” (J Med Chem, 2004).
